# Data as given in PMC11648681, “Development of machine learning models for the prediction of the skin sensitization potential of cosmetic compounds” (PeerJ, 2024).
# Tested on: THP-1 cells
# Assay: CCK-8 cell viability of THP-1 cells after 48 h compound treatment in HaCaT/THP-1 co-culture
# Assay type: cell-based, human
# Conditions: single (not double) concentration
# Method: The co-culture system was set up according to the following described method. In brief, when the HaCaT cells reached 80–90% confluency, they were digested with 0.25% trypsin (Cytiva, Burlington, MA, USA), collected, and seeded into 96-well plates at a density of 10,000 cells per well for 24 h. THP-1 cells were collected, centrifuged, and re-suspended in fresh RPMI-1640 medium supplemented with 10% FBS at 2 × 10^6 cells/mL. Then cells are distributed into HaCaT-seeded 96 wells plate with 80 μL (1.6 × 10^5 cells/well).
# The compounds listed in Table 1 were dissolved in DMSO to create stock solutions with a concentration of 500 mg/mL. Eleven concentrations were subsequently prepared using two-fold serial dilutions. These stock solutions were then further diluted 250-fold in RPMI-1640 + 10% FBS medium. Finally, 80 μL of the prepared solutions were added 1:1 to the treated 96-well plates and incubated for 48 h at 37 °C and 5% CO2.
# After 48 h of treatment, the treated cells were collected 100 μL cells per well. […] THP-1 cell viability was determined using standard calculation methods.
# The cytotoxicity of 15 test compounds listed in Table 1 was assessed using THP-1 cells across a concentration range of 1,000 to 3.9 μg/mL. Cell viability was assessed after 48 h of treatment using the CCK-8 assay.
row,Compound,final concentration used (highest concentration that maintained at least 80% cell viability) [µg/mL]
1,Sc1nc2ccccc2s1 [2-mercaptobenzothiazole],1.95
2,"O=[N+]([O-])c1ccc(Cl)c([N+](=O)[O-])c1 [DNCB, 2,4-dinitrochlorobenzene]",1.95
